Measurements published in article PMC8800018, “Discovery of novel selective PI3Kγ inhibitors through combining machine learning-based virtual screening with multiple protein structures and bio-evaluation” (Journal of Advanced Research, 2021).

Sequences of proteins named here, by UniProt entry; tags and fusion partners are left off. A change or cut given only in a name is not applied to a line headed by its entry.
UniProt P42338: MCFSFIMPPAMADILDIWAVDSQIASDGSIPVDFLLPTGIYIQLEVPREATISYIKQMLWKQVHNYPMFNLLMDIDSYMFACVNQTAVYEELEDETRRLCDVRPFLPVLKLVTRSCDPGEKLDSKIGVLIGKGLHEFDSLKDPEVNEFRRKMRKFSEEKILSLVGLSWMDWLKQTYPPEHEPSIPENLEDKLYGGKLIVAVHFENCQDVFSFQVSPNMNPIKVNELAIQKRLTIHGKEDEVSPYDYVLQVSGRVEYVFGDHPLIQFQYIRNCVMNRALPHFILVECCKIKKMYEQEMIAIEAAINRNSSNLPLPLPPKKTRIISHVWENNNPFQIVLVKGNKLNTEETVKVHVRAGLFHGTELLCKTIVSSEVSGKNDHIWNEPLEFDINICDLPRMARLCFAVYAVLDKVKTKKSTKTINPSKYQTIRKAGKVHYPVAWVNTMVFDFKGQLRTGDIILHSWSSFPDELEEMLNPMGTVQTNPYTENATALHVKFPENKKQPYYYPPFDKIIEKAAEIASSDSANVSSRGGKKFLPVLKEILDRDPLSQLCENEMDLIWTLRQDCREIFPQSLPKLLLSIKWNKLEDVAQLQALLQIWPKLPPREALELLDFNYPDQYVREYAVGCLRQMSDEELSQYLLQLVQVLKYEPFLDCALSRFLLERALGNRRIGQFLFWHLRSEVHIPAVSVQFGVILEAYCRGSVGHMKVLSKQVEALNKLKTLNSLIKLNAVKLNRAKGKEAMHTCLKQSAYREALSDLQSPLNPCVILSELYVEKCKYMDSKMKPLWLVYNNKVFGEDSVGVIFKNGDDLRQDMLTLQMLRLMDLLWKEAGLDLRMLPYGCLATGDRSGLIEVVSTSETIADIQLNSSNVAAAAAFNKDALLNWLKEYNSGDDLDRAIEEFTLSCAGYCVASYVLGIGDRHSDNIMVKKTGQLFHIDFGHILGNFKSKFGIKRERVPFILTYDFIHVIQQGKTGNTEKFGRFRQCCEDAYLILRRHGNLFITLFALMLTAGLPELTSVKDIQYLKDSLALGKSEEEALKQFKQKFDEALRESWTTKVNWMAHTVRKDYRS
UniProt P48736: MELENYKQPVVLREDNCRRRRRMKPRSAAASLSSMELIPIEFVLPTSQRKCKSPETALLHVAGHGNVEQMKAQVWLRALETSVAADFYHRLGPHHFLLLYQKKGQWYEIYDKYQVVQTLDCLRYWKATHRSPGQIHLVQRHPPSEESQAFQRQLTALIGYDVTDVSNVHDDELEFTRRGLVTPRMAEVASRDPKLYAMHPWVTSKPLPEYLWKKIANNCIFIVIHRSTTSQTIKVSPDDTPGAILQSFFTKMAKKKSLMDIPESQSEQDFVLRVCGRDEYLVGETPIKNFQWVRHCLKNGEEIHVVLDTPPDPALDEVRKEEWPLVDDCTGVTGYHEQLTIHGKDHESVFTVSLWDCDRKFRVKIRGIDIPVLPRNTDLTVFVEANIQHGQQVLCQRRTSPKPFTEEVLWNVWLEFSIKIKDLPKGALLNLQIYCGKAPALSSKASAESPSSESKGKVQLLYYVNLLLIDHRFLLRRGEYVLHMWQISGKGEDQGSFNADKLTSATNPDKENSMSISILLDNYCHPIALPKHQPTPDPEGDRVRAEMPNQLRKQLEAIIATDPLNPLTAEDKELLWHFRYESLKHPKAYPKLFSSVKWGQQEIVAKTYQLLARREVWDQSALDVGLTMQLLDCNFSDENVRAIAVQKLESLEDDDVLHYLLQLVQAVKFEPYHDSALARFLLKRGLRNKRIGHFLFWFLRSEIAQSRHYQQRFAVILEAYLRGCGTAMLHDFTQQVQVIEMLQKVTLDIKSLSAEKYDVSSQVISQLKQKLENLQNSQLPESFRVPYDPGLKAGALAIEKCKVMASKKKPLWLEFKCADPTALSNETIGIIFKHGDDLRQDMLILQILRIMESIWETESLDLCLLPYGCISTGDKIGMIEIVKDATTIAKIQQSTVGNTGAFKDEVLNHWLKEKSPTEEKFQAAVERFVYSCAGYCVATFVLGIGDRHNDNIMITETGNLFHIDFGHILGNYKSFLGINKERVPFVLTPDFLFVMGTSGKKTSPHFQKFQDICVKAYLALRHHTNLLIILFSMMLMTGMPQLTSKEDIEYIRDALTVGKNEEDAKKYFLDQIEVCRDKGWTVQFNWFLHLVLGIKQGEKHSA

Legend:
PI3Kβ = PI3Kβ (Homo sapiens, UniProt P42338); experiment: ADP-Glo cell-free PI3K kinase activity assay
PI3Kγ = PI3Kγ (Homo sapiens, UniProt P48736); experiment: ADP-Glo cell-free PI3K kinase activity assay; conditions: read-out: Cell-free inhibitory IC50 PI3Kγ; ATP 25 μM; average of triple tests

IC50 (PI3Kβ): 2580 nM
IC50 (PI3Kγ): 2980 nM
SMILES: O=c1cc(N2CCOCC2)oc2c(-c3ccccc3)cccc12 [LY294002, reference compound]
